Measurements: PubChem BioAssay AID602332 (National Center for Advancing Translational Sciences (NCATS), 2012)
Where “and” joins values, the source holds several entries; their conditions need not be identical. Identical values can stand only once. This is a selection; strong and weak results do not stand in their true shares. Calls of active or inactive are those of the source. Calls follow the shape of the dose curve; as a rule, active = well fitted activation curve with a large enough effect; inconclusive = small, poorly fitted or top-dose-only effect; inactive = no such curve, though single readings can be large or run the other way.

Experiment: qHTS for Inducers of the Endoplasmic Reticulum Stress Response (ERSR) in Human Glioma: qHTS; also: % of control where 0% means no effect; nearly all actives have a fitted effect of over 35% in size
Conditions: U87-MG GRP78 promoter luciferase reporter, 16 h; stronger effect = higher value

| SMILES | activation |
| --- | --- |
| COc1ccccc1CNC(=O)COC(=O)C(O)(c1ccccc1)c1ccccc1 | inactive: -2.73% |
| CC(C)/C=N\N=C(\N)N[N+](=O)[O-] | inactive: 1.02% |
| CN(C(=O)Cc1ccc(Cl)c(Cl)c1)[C@@H]1CCCC[C@H]1N1CCCC1 | inactive: -3.62% and inactive: -0.758% |
| CC1(CBr)Cn2c(nc3ccccc3c2=O)S1 (configuration not stated) | inactive: -4.75% |
| CCOP(=O)(NC(=NC(C)c1ccccc1)NC(C)c1ccccc1)OCC (configuration not stated) | inactive: -1.08% |
| O=P1(Nc2ccccn2)COc2ccccc2OC1 | inactive: -4.36% |
| CCC1=CC2Cc3nc4ccc(Cl)cc4c(N)c3C(C1)C2 (configuration not stated) | inactive: -10.7% |
| CCOP(=O)(Nc1ccc(C)cn1)OCC | inactive: -3.45% |
| CN(CCCl)Cc1cc(Cl)c(NC2=NCCN2)c(Cl)c1 | inactive: -4.74% and inactive: -1.3% and inactive: -2.91% |
| CC(C)(C)C(=O)NC(Sc1ncccn1)C(Cl)(Cl)Cl (configuration not stated) | inactive: -2.87% |
| O=P1(N(CCCl)CCCl)NCCC(C(F)(F)F)O1 (configuration not stated) | inactive: 2.61% |
| Clc1n[nH]nc1-c1nn[nH][15n]1 | inactive: 2.8% |
| Cc1ccc(S(=O)(=O)N(CCCN)CCCc2c(C)nc(N)[nH]c2=O)cc1 | inactive: -3.53% |
| O=P1(Nc2ncccn2)COc2ccccc2OC1 | inactive: -3.07% |
| Nc1cccc([As](=O)(O)c2ccccc2)c1 | inactive: -0.389% |
| O=[As](O)(c1cccs1)c1cccs1 | inactive: -3.07% |
| Cc1ccc(OCC(=O)OC2CN3CCC2CC3)cc1 (configuration not stated) | inactive: -5.5% |
| O=P1(Nc2ccc(Br)cn2)COc2ccccc2OC1 | inactive: -1.27% |
| NS(=O)(=O)c1cccc(NC(=O)COC(=O)C(O)(c2ccccc2)c2ccccc2)c1 | inactive: -1.96% |
| CC1CCC(C(C)C)C(OP(=O)(Nc2ccccn2)c2ccccc2)C1 (configuration not stated) | inactive: -8.59% |
| Cc1ccc(C(=O)OC2CN3CCC2CC3)cc1 (configuration not stated) | inactive: -3.29% |
| COc1cc([N+](=O)[O-])ccc1[N+](=O)[O-] | inactive: -7.78% |
| Cc1nn(-c2ccccc2)c2c1P(=O)(N1CCOCC1)N(C)C(c1ccccc1)=N2 (configuration not stated) | inactive: -1.34% |
| CN(C)C1(CNC(=O)c2ccc(S(C)(=O)=O)cc2)CCCCC1 | inactive: 1.4% |
| CCCC1OP(=O)(Nc2ccccc2)OCC1CC (configuration not stated) | inactive: -1.87% |
| O=C(/C=C/c1ccccc1)OC1CN2CCC1CC2 (configuration not stated) | inactive: -3% |
| NC(=O)Nc1ccc([As](=O)(O)O)cc1 | inactive: -2.56% and inactive: -0.776% and inactive: -4.37% |
